Earlier results, collected in patent US12303619B2, “Polymer implants” (Foundry Therapeutics, Inc., priority 2018, dated 2025).

Conditions: PVP electrospun nanofiber with 2.5 wt % Tween 20

maraviroc
time to complete release of 28 wt % maraviroc: six
